ChEMBL document CHEMBL4831556, “Discovery of a Novel Potent and Selective Calcium Release-Activated Calcium Channel Inhibitor: 2,6-Difluoro-N-(2'-methyl-3'-(4-methyl-5-oxo-4,5-dihydro-1,3,4-oxadiazol-2-yl)-[1,1'-biphenyl]-4-yl)benzamide. Structure-Activity Relationship and Preclinical Characterization” (J Med Chem, 2021)

The chains behind the UniProt entries cited, without tags or fusion partners. Where a name states a change or a piece, a line headed by the entry shows the natural chain unless it says otherwise.
UniProt Q00653: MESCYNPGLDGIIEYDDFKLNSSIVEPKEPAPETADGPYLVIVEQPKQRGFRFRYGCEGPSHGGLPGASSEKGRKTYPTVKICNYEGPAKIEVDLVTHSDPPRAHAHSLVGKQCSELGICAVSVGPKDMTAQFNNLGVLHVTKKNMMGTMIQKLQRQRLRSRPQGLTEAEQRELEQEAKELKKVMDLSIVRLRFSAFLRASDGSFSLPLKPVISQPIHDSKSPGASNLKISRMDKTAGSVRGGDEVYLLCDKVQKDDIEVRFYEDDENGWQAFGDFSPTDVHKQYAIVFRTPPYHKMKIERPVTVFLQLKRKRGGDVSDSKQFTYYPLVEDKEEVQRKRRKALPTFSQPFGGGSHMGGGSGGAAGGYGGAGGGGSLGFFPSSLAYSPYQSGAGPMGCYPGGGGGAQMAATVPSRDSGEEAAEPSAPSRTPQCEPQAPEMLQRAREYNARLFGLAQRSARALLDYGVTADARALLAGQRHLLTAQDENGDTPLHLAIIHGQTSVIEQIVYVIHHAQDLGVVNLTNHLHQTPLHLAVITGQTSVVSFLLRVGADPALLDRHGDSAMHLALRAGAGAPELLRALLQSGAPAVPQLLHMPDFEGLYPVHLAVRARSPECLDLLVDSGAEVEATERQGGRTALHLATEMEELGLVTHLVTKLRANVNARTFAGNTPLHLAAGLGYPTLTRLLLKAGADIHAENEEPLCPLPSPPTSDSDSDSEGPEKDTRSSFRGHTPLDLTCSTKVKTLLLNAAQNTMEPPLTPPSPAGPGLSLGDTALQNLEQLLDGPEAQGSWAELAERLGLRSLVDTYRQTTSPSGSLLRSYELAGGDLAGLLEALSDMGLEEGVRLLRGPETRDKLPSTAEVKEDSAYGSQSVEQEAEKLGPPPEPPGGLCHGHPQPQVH
UniProt P19838: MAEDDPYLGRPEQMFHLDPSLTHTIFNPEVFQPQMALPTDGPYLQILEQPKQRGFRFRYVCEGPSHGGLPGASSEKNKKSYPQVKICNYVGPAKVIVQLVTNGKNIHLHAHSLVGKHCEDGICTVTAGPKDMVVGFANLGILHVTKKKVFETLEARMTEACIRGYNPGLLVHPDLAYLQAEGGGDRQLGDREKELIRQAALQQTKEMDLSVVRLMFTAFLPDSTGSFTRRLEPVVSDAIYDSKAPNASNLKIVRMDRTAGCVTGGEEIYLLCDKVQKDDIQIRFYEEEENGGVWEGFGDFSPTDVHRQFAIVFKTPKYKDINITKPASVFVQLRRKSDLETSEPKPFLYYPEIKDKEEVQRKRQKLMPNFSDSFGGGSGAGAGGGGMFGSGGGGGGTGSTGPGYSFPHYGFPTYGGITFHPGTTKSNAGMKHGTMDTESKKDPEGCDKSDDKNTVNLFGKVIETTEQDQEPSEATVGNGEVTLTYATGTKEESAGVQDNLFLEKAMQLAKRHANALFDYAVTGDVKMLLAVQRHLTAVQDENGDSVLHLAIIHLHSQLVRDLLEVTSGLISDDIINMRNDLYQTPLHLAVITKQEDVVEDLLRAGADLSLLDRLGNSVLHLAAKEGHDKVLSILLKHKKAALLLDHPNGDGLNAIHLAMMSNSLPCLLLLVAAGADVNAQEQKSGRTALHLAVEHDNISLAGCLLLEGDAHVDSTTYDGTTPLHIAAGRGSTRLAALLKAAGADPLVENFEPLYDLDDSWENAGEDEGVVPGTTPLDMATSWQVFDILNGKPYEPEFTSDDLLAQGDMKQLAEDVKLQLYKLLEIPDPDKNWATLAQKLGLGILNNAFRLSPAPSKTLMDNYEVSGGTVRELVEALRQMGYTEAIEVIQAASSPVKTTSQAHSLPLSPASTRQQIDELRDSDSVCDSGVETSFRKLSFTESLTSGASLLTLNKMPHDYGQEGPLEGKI
UniProt Q04206, whole entry, looked up: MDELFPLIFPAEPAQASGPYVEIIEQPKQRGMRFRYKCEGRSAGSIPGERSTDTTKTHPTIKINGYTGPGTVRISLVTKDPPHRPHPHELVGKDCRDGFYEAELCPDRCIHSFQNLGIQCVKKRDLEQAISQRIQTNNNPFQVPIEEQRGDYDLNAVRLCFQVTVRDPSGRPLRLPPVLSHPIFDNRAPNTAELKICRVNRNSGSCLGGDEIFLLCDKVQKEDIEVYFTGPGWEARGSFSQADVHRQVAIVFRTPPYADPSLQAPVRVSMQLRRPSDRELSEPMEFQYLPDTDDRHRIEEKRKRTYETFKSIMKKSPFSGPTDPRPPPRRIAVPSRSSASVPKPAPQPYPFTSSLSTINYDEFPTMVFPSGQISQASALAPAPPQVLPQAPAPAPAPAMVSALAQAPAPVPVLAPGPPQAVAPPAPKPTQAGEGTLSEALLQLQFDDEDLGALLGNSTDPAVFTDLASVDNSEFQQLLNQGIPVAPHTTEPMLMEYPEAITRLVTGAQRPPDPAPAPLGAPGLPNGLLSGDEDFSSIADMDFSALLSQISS

Target: Nuclear factor NF-kappa-B complex (Homo sapiens) (UniProt Q00653+P19838+Q04206)
Experiment: Inhibition of NF-kappaB (unknown origin) at 10 uM relative to control
Type: protein-complex assay

Structure (SMILES) | inhibition [%]
Cc1c(-c2ccc(NC(=O)c3c(F)cccc3F)cc2)cccc1-c1nn(C)c(=O)o1 | 8
Cc1c(-c2ccc(NC(=O)c3c(F)cccc3Cl)cc2)cccc1-c1nn(C)c(=O)o1 | 5
